Biological target: plasma membrane calcium pump (PMCA) (Homo sapiens) (UniProt P23634)
Assay: Ca2+-ATPase activity inhibition

With F-actin (from UniProt P60709) as the substance, how does the Ki read?
The Ki was 670 nM.

Source: publication PMC3894748
